## Ab-14 heavy chain CDR variants: yeast mating affinities

Data: MIT Lincoln Laboratory AlphaSeq set, Engelhart et al. 2022, doi:10.1038/s41597-022-01779-4, as distributed in FLAb.

Target peptide (SARS-CoV-2 spike, HR2 region): PDVDLGDISGINAS

Parent scFv Ab-14: VH joined to VL by a (GGGGS)3 linker. Changes lie in the heavy chain CDRs alone.
VH: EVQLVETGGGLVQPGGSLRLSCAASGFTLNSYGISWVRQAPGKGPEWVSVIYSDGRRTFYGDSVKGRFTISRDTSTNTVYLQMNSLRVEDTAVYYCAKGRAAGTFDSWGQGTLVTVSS
VL: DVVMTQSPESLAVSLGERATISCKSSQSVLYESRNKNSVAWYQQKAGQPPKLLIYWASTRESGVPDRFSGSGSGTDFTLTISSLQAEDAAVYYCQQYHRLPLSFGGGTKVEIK

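The starting antibody came from a phage panning campaign against this peptide. The library (AAYL49) carries one to three amino acid substitutions per variant, with no insertions or deletions. AlphaSeq pools MATa yeast showing the antibodies with MATalpha yeast showing the peptide. After mating in shaken culture at 30 °C for 16 h, diploids were selected and their barcode pairs sequenced. A regression on co-assayed BCL2-family reference pairs converts the normalised counts of each replicate to an apparent Kd. The assay was run in three technical replicates.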

Positions count from residue 1 of the parent VH; S31F puts F in place of S.
Scale: log10 of Kd in nM, estimated from mating counts; low values are strong binders.
Replicates are averaged; those with no signal do not enter the mean.
"nd" means that the variant was in the library but no mating with the target was seen in any replicate; the authors take this as a sign of poor binding, and no number exists.
Three control strains display no target. For library AAYL49, 15% of the pairings with them gave a signal, with a median of 4.06 and one signal in twenty below 2.83, so weak values seen in few replicates may be background. Also given: how often the same scFv was detected with the empty control strains.

mean, log10 nM | replicates with signal | control signals | changes
nd | 0/3 | 1/9 | S31F+V64L+G103T
nd | 0/3 | 0/9 | L29M+D62Y+K65W
2.47 | 3/3 | 0/9 | N30H+D62S+R100V
nd | 0/3 | 0/9 | Y32W+R100A+G103K
1.48 | 3/3 | 1/9 | F27Q+D62A+S107M
5.35 | 1/3 | 2/9 | I34H+K65M+A101M
nd | 0/3 | 4/9 | R56M+D106C+S107N
3.12 | 1/3 | 1/9 | R57I+K65V+F105Q
2.74 | 1/3 | 4/9 | G33P+S53D+F105N
nd | 0/3 | 0/9 | G26K+D54F+R57V
nd | 0/3 | 0/9 | G26R+G55L
4.18 | 3/3 | 4/9 | G26N+S31N+Y32H
4.22 | 3/3 | 4/9 | T28W+R56Y+F59G
nd | 0/3 | 0/9 | R56C+K65H+A102D
5.40 | 1/3 | 2/9 | D54A+T58H
nd | 0/3 | 0/9 | T28V+I51G+G61S
nd | 0/3 | 2/9 | F27N+Y32A+D106L
3.44 | 1/3 | 1/9 | R56I+K65Q+T104W
4.75 | 2/3 | 2/9 | N30A+S63I+K65H
nd | 0/3 | 0/9 | D54L+R57S+A102T
nd | 0/3 | 0/9 | N30F+V50N+T58H
nd | 0/3 | 1/9 | T28A+Y32V+S63I
nd | 0/3 | 2/9 | G26W+S35C
nd | 0/3 | 1/9 | G26C+Y52K+R57T
4.38 | 2/3 | 2/9 | Y32D+S35I+A101Y
4.16 | 1/3 | 0/9 | T28Y+V50S+A101L
5.02 | 1/3 | 1/9 | V50W+R56S+R57H
4.53 | 3/3 | 7/9 | F27K+D54C+D106L
nd | 0/3 | 0/9 | T104V+D106E
3.95 | 1/3 | 3/9 | S35N+V50Y+T104S
nd | 0/3 | 0/9 | V50W+Y60P+G103Q
4.73 | 3/3 | 7/9 | R56Q+D62T+S63F
5.08 | 1/3 | 4/9 | D54I+T58L+A102W
5.21 | 2/3 | 4/9 | G26C+S53P+D106S
2.49 | 3/3 | 7/9 | T58C+T104L
2.91 | 1/3 | 0/9 | Y32V+G55M+S63M
nd | 0/3 | 1/9 | V50G+D54T+K65I
3.61 | 1/3 | 0/9 | T28K+V64D+G103I
nd | 0/3 | 0/9 | T58Q+S63H+T104S
nd | 0/3 | 2/9 | G26W+Y32G
4.37 | 1/3 | 2/9 | Y32G+F59S+T104C
nd | 0/3 | 0/9 | G26C+R56K+R100V
nd | 0/3 | 0/9 | S53Q+G55E
nd | 0/3 | 0/9 | Y32S+D62N+A101D
3.95 | 2/3 | 3/9 | F27Y+Y52P+S107A
nd | 0/3 | 1/9 | F27M+D106P
5.00 | 1/3 | 1/9 | G26Y+S35Q+R57E
3.37 | 1/3 | 3/9 | G55C+F59P+D106G
3.32 | 1/3 | 1/9 | L29W+S31A+Y60M
4.65 | 2/3 | 4/9 | N30L+I34N+F105L
4.73 | 1/3 | 4/9 | S31C+S53N
4.46 | 1/3 | 2/9 | D54V+Y60W+R100P
2.76 | 2/3 | 0/9 | T28P+L29M+N30M
nd | 0/3 | 1/9 | D54V+V64Q
1.98 | 3/3 | 0/9 | G26Q+V64S+A101C
nd | 0/3 | 1/9 | F27Y+I51Y+G61A
4.24 | 3/3 | 3/9 | D62F+G99M+S107L
nd | 0/3 | 1/9 | S53Q+G61Y+D62H
1.07 | 3/3 | 0/9 | G26A+I51M+A101Q
6.12 | 1/3 | 4/9 | G26T+Y32R+S53I
3.30 | 1/3 | 0/9 | G33C+G61C+F105K
nd | 0/3 | 3/9 | G26P+N30R+S107G
4.66 | 3/3 | 5/9 | T28A+L29T+A102E